Laboratory results reported in patent US20170172880A1, “Fast Dissolving Peroxymonosulfate Composition” (Colgate-Palmolive Company, priority 2015, published 2017).

Assay: Whitening efficacy in a mouthwash type setup
Details: short 1 min exposure times

O=S(=O)([O-])O[O-].[K+].[K+] [MPS, potassium peroxymonosulfate]
whitening result compared with 2% hydrogen peroxide rinse: on par with the 2% hydrogen peroxide rinse
